Data taken from patent US7759499B2, “Compounds as inhibitors of hepatitis C virus NS3 serine protease” (Schering Corporation, priority 2004, dated 2010).

Amino acid sequences for entries named in this document (tags omitted). Residues count along the entry.
UniProt P27958, 1027-1657: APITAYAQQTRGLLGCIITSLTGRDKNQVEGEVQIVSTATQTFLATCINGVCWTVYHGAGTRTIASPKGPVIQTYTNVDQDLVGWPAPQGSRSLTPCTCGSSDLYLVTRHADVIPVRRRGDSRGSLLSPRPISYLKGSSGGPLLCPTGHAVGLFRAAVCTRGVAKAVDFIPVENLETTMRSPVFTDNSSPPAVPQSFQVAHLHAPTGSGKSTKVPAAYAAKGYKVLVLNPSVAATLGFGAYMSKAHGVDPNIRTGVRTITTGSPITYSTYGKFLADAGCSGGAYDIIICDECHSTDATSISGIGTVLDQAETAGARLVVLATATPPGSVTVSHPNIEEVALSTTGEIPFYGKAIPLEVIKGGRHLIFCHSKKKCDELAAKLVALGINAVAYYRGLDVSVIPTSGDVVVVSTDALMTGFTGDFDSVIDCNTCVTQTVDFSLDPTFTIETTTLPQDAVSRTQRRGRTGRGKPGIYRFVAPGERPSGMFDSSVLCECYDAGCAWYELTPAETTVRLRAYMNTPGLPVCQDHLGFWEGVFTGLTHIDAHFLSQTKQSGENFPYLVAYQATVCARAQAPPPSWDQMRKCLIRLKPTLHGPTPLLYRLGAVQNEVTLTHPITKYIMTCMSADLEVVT
UniProt P27958, 1658-1711: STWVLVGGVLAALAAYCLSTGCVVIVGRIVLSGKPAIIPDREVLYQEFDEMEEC

The molecules below were run against Recombinant heterodimeric HCV NS3/NS4A protease (strain 1a) (Hepatitis C virus genotype 1a, UniProt P27958) (assay: Spectrophotometric assay for HCV protease inhibitory activity). Conditions: Table 1, range.
Format: biochemical
`CCCCC(NC(=O)[C@@H]1[C@@H]2[C@H](CN1C(=O)[C@@H](NC(=O)N[C@H](CN(C)S(=O)(=O)N(C)C)C(C)(C)C)C1Cc3ccccc3C1)C2(C)C)C(=O)C(=O)NCC` (stereo partly drawn) [Compound 10057] was tested, and the Ki was ≤ 75 nM.
`C=CCNC(=O)C(=O)C(CCC)NC(=O)[C@@H]1[C@@H]2[C@H](CN1C(=O)[C@@H](NC(=O)N[C@H](CNS(=O)(=O)NCCCCl)C(C)(C)C)C(C)(C)C)C2(C)C` (stereo partly drawn) [Compound 10041] was tested, and the Ki was ≤ 75 nM.
With `CC(C)(C)[C@H](NC(=O)N[C@H](CNS(=O)(=O)NCCCCl)C(C)(C)C)C(=O)N1C[C@H]2[C@@H]([C@H]1C(=O)NC(CC1CC1)C(=O)C(N)=O)C2(C)C` (stereo partly drawn) [Compound 10040] the Ki was ≤ 75 nM.
In the case of `C#CCCC(NC(=O)[C@@H]1[C@@H]2[C@H](CN1C(=O)[C@@H](NC(=O)N[C@H](CN(C)S(=O)(=O)N1CCCCC1)C(C)(C)C)C(C)(C)C)C2(C)C)C(=O)C(=O)NCC=C` (stereo partly drawn) [Compound 10048], the Ki is reported as ≤ 75 nM.
With `C=CCNC(=O)C(=O)C(CC1CC1)NC(=O)[C@@H]1[C@@H]2[C@H](CN1C(=O)[C@@H](NC(=O)N[C@H](CN(C)S(=O)(=O)N(C)C)C1CCCCC1)C(C)(C)C)C2(C)C` (stereo partly drawn) [Compound 10067] the Ki was ≤ 75 nM.
`CN(C[C@@H](NC(=O)N[C@H](C(=O)N1C[C@H]2[C@@H]([C@H]1C(=O)NC(CC1CC1)C(=O)C(N)=O)C2(C)C)C(C)(C)C)C(C)(C)C)S(=O)(=O)N1CCCCC1` (stereo partly drawn) [Compound 10034] was tested, and the Ki was ≤ 75 nM.
In the case of `C=CCNC(=O)C(=O)C(CCC(F)(F)F)NC(=O)[C@@H]1[C@@H]2[C@H](CN1C(=O)[C@@H](NC(=O)N[C@H](CN(C)S(=O)(=O)N(C)C)C(C)(C)C)C1CCCCC1)C2(C)C` (stereo partly drawn) [Compound 10086], the Ki is reported as ≤ 75 nM.
`CN(C[C@@H](NC(=O)N[C@H](C(=O)N1C[C@H]2[C@@H]([C@H]1C(=O)NC(CC1CCC1)C(=O)C(N)=O)C2(C)C)C(C)(C)C)C(C)(C)C)S(=O)(=O)N(C)C(=O)OCc1ccccc1` (stereo partly drawn) [Compound 10032] was tested, and the Ki was ≤ 75 nM.
`C=CCNC(=O)C(=O)C(CCC)NC(=O)[C@@H]1[C@@H]2[C@H](CN1C(=O)[C@@H](NC(=O)N[C@H](CN(C)S(=O)(=O)N(C)C)C(C)(C)C)C1(C)CCCCC1)C2(C)C` (stereo partly drawn) [Compound 10060] was tested, and the Ki was ≤ 75 nM.

Same assay, conditions: Table 2, range
For `C=CCNC(=O)C(=O)C(CCC)NC(=O)[C@@H]1[C@@H]2[C@H](CN1C(=O)[C@@H](NC(=O)N[C@H](CN(C)S(=O)(=O)CC)C(C)(C)C)C1Cc3ccccc3C1)C2(C)C` (stereo partly drawn) [Compound 11286], the Ki was ≤ 75 nM.
For `C=CCNC(=O)C(=O)C(CCC(F)(F)F)NC(=O)[C@@H]1C[C@@H](Cl)CN1C(=O)[C@@H](NC(=O)N[C@H](CN(C)S(C)(=O)=O)C(C)(C)C)C1CCCCC1` (stereo partly drawn) [Compound 11164], the Ki was ≤ 75 nM.
In the case of `C#CCCC(NC(=O)[C@@H]1[C@@H]2[C@H](CN1C(=O)[C@@H](NC(=O)N[C@H](CN(C(C)C)S(=O)(=O)c1cccs1)C(C)(C)C)C(C)(C)C)C2(C)C)C(=O)C(=O)NCC=C` (stereo partly drawn) [Compound 11390], the Ki is reported as ≤ 75 nM.
With `CCCCC(NC(=O)[C@@H]1[C@@H]2[C@H](CN1C(=O)[C@@H](NC(=O)N[C@H](CN(C)S(C)(=O)=O)C(C)(C)C)C1Cc3ccccc3C1)C2(C)C)C(=O)C(=O)NCC1CC1` (stereo partly drawn) [Compound 11281] the Ki was ≤ 75 nM.
For `C#CCCC(NC(=O)[C@@H]1[C@@H]2[C@H](CN1C(=O)[C@@H](NC(=O)N[C@H](CN(C)S(=O)(=O)c1ccccn1)C(C)(C)C)C(C)(C)C)C2(C)C)C(=O)C(=O)NCC=C` (stereo partly drawn) [Compound 11002], the Ki was ≤ 75 nM.
In the case of `Cc1nc(C)c(S(=O)(=O)N(C)C[C@@H](NC(=O)N[C@H](C(=O)N2C[C@H]3[C@@H]([C@H]2C(=O)NC(CC2CCC2)C(=O)C(N)=O)C3(C)C)C(C)(C)C)C(C)(C)C)s1` (stereo partly drawn) [Compound 11119], the Ki is reported as ≤ 75 nM.
With `CC[C@H](C)[C@@H](CN(C)S(=O)(=O)c1cccs1)NC(=O)N[C@H](C(=O)N1C[C@H]2[C@@H]([C@H]1C(=O)NC(CC1CC1)C(=O)C(N)=O)C2(C)C)C(C)(C)C` (stereo partly drawn) [Compound 11094] the Ki was ≤ 75 nM.
`CN(C[C@H](CC(C)(C)C)NC(=O)N[C@H](C(=O)N1C[C@H]2[C@@H]([C@H]1C(=O)NC(CC1CCC1)C(=O)C(N)=O)C2(C)C)C(C)(C)C)S(=O)(=O)C1CC1` (stereo partly drawn) [Compound 11130] was tested, and the Ki was ≤ 75 nM.
With `C=CCNC(=O)C(=O)C(CCC)NC(=O)[C@@H]1C[C@@H](OC(C)(C)C)CN1C(=O)[C@@H](NC(=O)N[C@H](CN(C)S(C)(=O)=O)C(C)(C)C)C1CCCCC1` (stereo partly drawn) [Compound 11194] the Ki was 75 to 250 nM.
`C#CCCC(NC(=O)[C@@H]1[C@@H]2[C@H](CN1C(=O)[C@@H](NC(=O)N[C@H](CN(C)S(C)(=O)=O)C(C)(C)C)C(C)(C)C)C2(C)C)C(=O)C(=O)NCC=C` (stereo partly drawn) [Compound 11128] was tested, and the Ki was ≤ 75 nM.
In the case of `C=CCNC(=O)C(=O)C(CCCC)NC(=O)[C@@H]1[C@@H]2[C@H](CN1C(=O)[C@@H](NC(=O)N[C@H](CN(CC)S(C)(=O)=O)C(C)(C)C)C(C)(C)C)C2(C)C` (stereo partly drawn) [Compound 11170], the Ki is reported as ≤ 75 nM.
For `CCCCC(NC(=O)[C@@H]1[C@@H]2[C@H](CN1C(=O)[C@@H](NC(=O)N[C@H](CN(C)S(=O)(=O)CC)C(C)(C)C)C1Cc3ccccc3C1)C2(C)C)C(=O)C(=O)NCC` (stereo partly drawn) [Compound 11357], the Ki was ≤ 75 nM.
With `C=CCNC(=O)C(=O)C(CC1CC1)NC(=O)[C@@H]1[C@@H]2[C@H](CN1C(=O)[C@@H](NC(=O)N[C@H](CN(CC1CC1)S(=O)(=O)c1ccccc1)C(C)C)C(C)(C)C)C2(C)C` (stereo partly drawn) [Compound 11012] the Ki was ≤ 75 nM.
`CCCC(NC(=O)[C@@H]1[C@@H]2[C@H](CN1C(=O)[C@@H](NC(=O)N[C@H](CN(C)S(=O)(=O)c1cccs1)C(C)(C)C)C(C)(C)C)C2(C)C)C(=O)C(=O)NCCOC` (stereo partly drawn) [Compound 11136] showed a Ki of 75 to 250 nM.
With `CN(C[C@@H](NC(=O)N[C@H](C(=O)N1C[C@H]2[C@@H]([C@H]1C(=O)NC(CC1CCC1)C(=O)C(N)=O)C2(C)C)C1(C)CCCCC1)C(C)(C)C)S(=O)(=O)c1ccccn1` (stereo partly drawn) [Compound 11371] the Ki was ≤ 75 nM.
For `C=CCNC(=O)C(=O)C(CCCC)NC(=O)[C@@H]1[C@@H]2[C@H](CN1C(=O)[C@@H](NC(=O)N[C@H](CN(C)S(=O)(=O)c1ccccc1Cl)C(C)(C)C)C(C)(C)C)C2(C)C` (stereo partly drawn) [Compound 11351], the Ki was ≤ 75 nM.
With `CCCCC(NC(=O)[C@@H]1[C@@H]2[C@H](CN1C(=O)[C@@H](NC(=O)N[C@H](CN(C)S(C)(=O)=O)C(C)(C)C)C(C)(C)C)C2(C)C)C(=O)C(=O)NC` (stereo partly drawn) [Compound 11135] the Ki was ≤ 75 nM.
For `C=CCNC(=O)C(=O)C(CC1CC1)NC(=O)[C@@H]1[C@@H]2[C@H](CN1C(=O)[C@@H](NC(=O)N[C@H](CN(CC)S(C)(=O)=O)C(C)(C)C)C(C)(C)C)C2(C)C` (stereo partly drawn) [Compound 11171], the Ki was ≤ 75 nM.
With `C=CCNC(=O)C(=O)C(CCCC)NC(=O)[C@@H]1[C@@H]2[C@H](CN1C(=O)[C@@H](NC(=O)N[C@H](CN(C)S(=O)(=O)c1ccccc1)C(C)(C)C)C1CCCCC1)C2(C)C` (stereo partly drawn) [Compound 11354] the Ki was ≤ 75 nM.
For `C=CCNC(=O)C(=O)C(CCCC)NC(=O)[C@@H]1[C@@H]2[C@H](CN1C(=O)[C@@H](NC(=O)N[C@H](CN(C)S(=O)(=O)c1cccs1)C(C)(C)C)C(C)(C)C)C2(C)C` (stereo partly drawn) [Compound 11085], the Ki was ≤ 75 nM.
For `C=CCNC(=O)C(=O)C(CC1CC1)NC(=O)[C@@H]1[C@@H]2[C@H](CN1C(=O)[C@@H](NC(=O)N[C@H](CN(C)S(=O)(=O)c1c(C)cc(C)cc1C)C(C)(C)C)C(C)(C)C)C2(C)C` (stereo partly drawn) [Compound 11332], the Ki was 75 to 250 nM.
With `CCCC(NC(=O)[C@@H]1C[C@@H](OC(C)(C)C)CN1C(=O)[C@@H](NC(=O)N[C@H](CN(C)S(C)(=O)=O)C(C)(C)C)C1CCCCC1)C(=O)C(N)=O` (stereo partly drawn) [Compound 11196] the Ki was ≤ 75 nM.
With `C=CCNC(=O)C(=O)C(CC1CC1)NC(=O)[C@@H]1[C@@H]2[C@H](CN1C(=O)[C@@H](NC(=O)N[C@H](CN(C)S(=O)(=O)Cc1ccccc1)C(C)(C)C)C(C)(C)C)C2(C)C` (stereo partly drawn) [Compound 11035] the Ki was ≤ 75 nM.
For `C=CCNC(=O)C(=O)C(CCCC)NC(=O)[C@@H]1[C@@H]2[C@H](CN1C(=O)[C@@H](NC(=O)N[C@H](CN(C)S(=O)(=O)c1c(C)cc(C)cc1C)C(C)(C)C)C(C)(C)C)C2(C)C` (stereo partly drawn) [Compound 11333], the Ki was 75 to 250 nM.

Same assay, conditions: Table 3, range
`C=CCNC(=O)C(=O)C(CCC)NC(=O)[C@@H]1[C@@H]2[C@H](CN1C(=O)[C@@H](NC(=O)N[C@H](CNS(C)(=O)=O)[C@@H](C)CC)C(C)(C)C)C2(C)C` (stereo partly drawn) [Compound 12021] was tested, and the Ki was ≤ 75 nM.
With `C=CCNC(=O)C(=O)C(CCCC)NC(=O)[C@@H]1[C@@H]2[C@H](CN1C(=O)[C@@H](NC(=O)N[C@H](CNS(=O)(=O)c1ccccc1)C(C)C)C(C)(C)C)C2(C)C` (stereo partly drawn) [Compound 12015] the Ki was > 250 nM.

Same assay, conditions: Table 4, range
`C=CCNC(=O)C(=O)C(CCC(F)(F)F)NC(=O)[C@@H]1[C@@H]2[C@H](CN1C(=O)[C@@H](NC(=O)N[C@H](CN(C)C(=O)C1CC1)C(C)(C)C)C(C)(C)C)C2(C)C` (stereo partly drawn) [Compound 13015] was tested, and the Ki was 75 to 250 nM.
`C=CCNC(=O)C(=O)C(CC1CC1)NC(=O)[C@@H]1[C@@H]2[C@H](CN1C(=O)[C@@H](NC(=O)N[C@H](CN(C)C(C)=O)C(C)(C)C)C(C)(C)C)C2(C)C` (stereo partly drawn) [Compound 13018] was tested, and the Ki was ≤ 75 nM.
For `CN(C[C@@H](NC(=O)N[C@H](C(=O)N1C[C@H]2[C@@H]([C@H]1C(=O)NC(CC1CC1)C(=O)C(N)=O)C2(C)C)C(C)(C)C)C(C)(C)C)C(=O)c1ccccn1` (stereo partly drawn) [Compound 13022], the Ki was ≤ 75 nM.

Same assay, conditions: Table 5, range
For `CN(C[C@H](CC(C)(C)C)NC(=O)N[C@H](C(=O)N1C[C@H]2[C@@H]([C@H]1C(=O)NC(CC1CC1)C(=O)C(N)=O)C2(C)C)C(C)(C)C)C(=O)OC(C)(C)C` (stereo partly drawn) [Compound 14046], the Ki was > 250 nM.
`C=CCNC(=O)C(=O)C(CCCC)NC(=O)[C@@H]1[C@@H]2[C@H](CN1C(=O)[C@@H](NC(=O)N[C@H](CN(C)C(=O)OC(C)(C)C)CC(C)(C)C)C(C)(C)C)C2(C)C` (stereo partly drawn) [Compound 14041] was tested, and the Ki was > 250 nM.
For `CC(C)[C@@H](CNC(=O)N[C@H](C(=O)N1C[C@H]2[C@@H]([C@H]1C(=O)NC(CC1CCC1)C(=O)C(N)=O)C2(C)C)C(C)(C)C)NC(=O)OCc1ccccc1` (stereo partly drawn) [Compound 14016], the Ki was 75 to 250 nM.
With `CC(C)[C@@H](CNC(=O)NC1CCCCC1)NC(=O)N[C@H](C(=O)N1C[C@H]2[C@@H]([C@H]1C(=O)NC(CC1CCC1)C(=O)C(N)=O)C2(C)C)C(C)(C)C` (stereo partly drawn) [Compound 14057] the Ki was ≤ 75 nM.

Same assay, conditions: Table 5A, range
For `CCS(=O)(=O)N(C)C[C@@H](NC(=O)N[C@H](C(=O)N1C[C@H]2[C@@H]([C@H]1C(=O)NC(CCC(F)(F)F)C(=O)C(=O)NC1CC1)C2(C)C)C1Cc2ccccc2C1)C(C)(C)C` (stereo partly drawn) [Compound 11412], the Ki was ≤ 75 nM.

Same assay, conditions: Table 6
Work on `CCS(=O)(=O)N(C)C[C@@H](NC(=O)N[C@H](C(=O)N1C[C@H]2[C@@H]([C@H]1C(=O)NC(CCC(F)(F)F)C(=O)C(=O)NC1CC1)C2(C)C)C1Cc2ccccc2C1)C(C)(C)C` (stereo partly drawn) [Compound 11412] yielded a Ki of 7 nM.
`C=CCNC(=O)C(=O)C(CC1CC1)NC(=O)[C@@H]1[C@@H]2[C@H](CN1C(=O)[C@@H](NC(=O)N[C@H](CN(C)S(=O)(=O)N(C)C)C(C)(C)C)C1Cc3ccccc3C1)C2(C)C` (stereo partly drawn) [drawing 61] showed a Ki of 12 nM.
